Legend:
[1] = molecular target: T1, hNE (Homo sapiens, UniProt P08246); assay: hNE inhibition, hydrolysis of chromogenic substrate N-Succinyl-Ala-Ala-Ala-paraNitroAnilide; format: biochemical; settings: hNE 50 nM; substrate 1 mM
T1 construct: purchased Elastin Products Company (EPC)
T1 sequence (P08246 30-247): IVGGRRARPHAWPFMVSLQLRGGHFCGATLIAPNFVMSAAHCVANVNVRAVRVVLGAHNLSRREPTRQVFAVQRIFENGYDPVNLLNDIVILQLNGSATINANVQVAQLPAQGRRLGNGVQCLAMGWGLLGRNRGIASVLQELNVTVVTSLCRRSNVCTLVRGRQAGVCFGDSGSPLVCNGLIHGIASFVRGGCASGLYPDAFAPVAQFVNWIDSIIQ

[2] = molecular target: T1, hNE; assay: hNE inhibition, hydrolysis of elastin (Elastin-CongoRed); format: biochemical; settings: hNE 132 nM, 16 hours at 37° C.
Procedure: 1.6.2. Inhibition of the hydrolysis of elastin, a natural substrate of hNE. […] The samples were incubated for 16 hours at 37° C. with orbital shaking (900 rpm). The samples were then centrifuged at 90′000 g for 30 minutes at 4° C. to separate the insoluble Elastin from the digested and soluble molecule fragments. The soluble fraction was transferred into a 384-wells clear plate and the absorbance of Congo-red was measured at 495 nm in a SpectraMax M2e Microplates Reader (Molecular Devices, California, USA). The absorbance of the samples at different inhibitor: hNE molar ratios was compared to that measured in the absence of inhibitor, to determine the residual hNE activity. A sample of Elastin-Congo red without elastase was used as blank.

IC50 [1]: 0.077 ± 0.001 µM | IC50 [2]: 7.76 ± 0.255 µM
Compound: CC(C)(C)C(=O)Oc1ccc(S(=O)(=O)Nc2ccccc2C(=O)NCC(=O)O)cc1 [Sivelestat]
